The values that follow are results of earlier work, collected in PubChem BioAssay AID1811 (Shanghai Institute of Organic Chemistry, 2009).

Structures are written as SMILES. The list shows a part of the results. The source made the active and inactive calls. Where no limit is named, active and inactive come without a cut-off here.

For this data set, the system named is cell division protein kinase 2. The experiment in a line: PubChem AID 1811. Conditions: PDB complex binding affinities from literature.
Consider `CC(C)C[C@H](NC(=O)[C@H](CCCN=C(N)N)NC(=O)[C@@H](N)CCCN=C(N)N)C(=O)N[C@@H](CC(N)=O)C(=O)N[C@@H](Cc1ccc(F)cc1)C(N)=O`, for which the result was active. As to `CN(C)C[C@@H](O)COc1ccc(Nc2ncc(Br)c(Nc3ccccc3)n2)cc1`, the call was active.

With `NS(=O)(=O)c1cccc(Nc2nc(OCC3CCCCC3)c3[nH]cnc3n2)c1`, the compound was called active. Take `Clc1cccc(Nc2nc(OCC3CCCCC3)c3[nH]cnc3n2)c1`: the outcome was active. `Nc1n[nH]c(N)c1N=Nc1ccc(O)cc1`: the call was active.

As to `CC(=O)N[C@@H](CCCN=C(N)N)C(=O)N[C@@H](CCCN=C(N)N)C(=O)N[C@@H](CC(C)C)C(=O)N[C@@H](CC(N)=O)C(=O)N[C@@H](Cc1cccc(Cl)c1)C(N)=O`, the outcome was active.

Consider `CC(=O)N[C@@H](CCCN=C(N)N)C(=O)N[C@H]1CCCCNC(=O)CNC(=O)[C@H](Cc2ccccc2)NC(=O)[C@H](CC(C)C)NC1=O`, for which the call was active. Regarding `Cc1nc(C)c(-c2ccnc(N)n2)s1`, the compound was called active.
